In ChEMBL document CHEMBL6109116, “Peripherally Restricted Fused Heterocyclic Peptidomimetic Multifunctional Opioid Agonists as Novel, Potent Analgesics” (ACS Med Chem Lett, 2025) one finds ED50, Ratio ED50 and Activity data, which are given here for 1 compound.

In one data set the test system is Mus musculus. As to the kind of experiment: Antinociceptive activity in male C57BL/6J mouse preadministered with compound for 10 mins followed by acetic acid administration and measured after 15 to 30 min by Acetic acid stretching assay (AcAS). The following applies: time 25-40 min.
The nature of data set [1]: Selectivity ratio of ED50 for antinociceptive activity in male C57BL/6J mouse at 10 mg/kg, ip measured after 10 min by 55 degreeC warm-water tail-withdrawal assay to ED50 for antinociceptive activity in male C57BL/6J mouse preadministered with compound for 10 mins followed by acetic acid administration and measured after 15 to 30 min by Acetic acid stretching assay (AcAS).

A short description of data set [2]: Toxicity in C57BL/6J mouse assessed as respiratory depression at 30 mg/kg, ip measured after 20 mins. The following applies: in vivo.
A short description of data set [3]: Toxicity in C57BL/6J mouse assessed as increase in ambulation at 30 mg/kg, ip measured up to 1 hr. To be noted: in vivo.

By ED50 is commonly meant the dose that gives a 50% effect, or the effect in half of the subjects. Take `CN(C(=O)Cc1ccc(Cl)c(Cl)c1)[C@@H]1CCCC[C@H]1N1CCCC1`: the 50% effective dose (ED50) with Mus musculus is 2.22 mg/kg. Further, the Ratio ED50 in data set [1] came to 8.88. For the same compound, the Activity entry in data set [2] is reported as “Toxic”; in data set [3], “Non-toxic”.
